The data set can be described thus: Renal and hematological toxicity, single i.p. dose (Table 8). To be noted: single i.p. dose (mg/kg): 1,4-DACH-Pt^II CBDCA 300, 1,4-DACH-Pt^IV Cl4 8.0, Tetraplatin 8.0, Cis-platin 12.0, Carboplatin 150.

On to “Cis- 1,4-diaminocyclohexane- 1,1-cyclobutanedicarboxylato-platinum(II).H2 O”, for which the “Survivors on d.14” value is given as 5/5.

Source of the values: patent publication US5434256A, “Diamine platinum complexes as antitumor agents” (priority 1994, dated 1995).
